Article PMC3921447, “Homologous and heterologous desensitization of guanylyl cyclase-B signaling in GH3 somatolactotropes” (Cell and Tissue Research, 2013)

Columns and labels:
[1] = target: T1, GC-B (Rattus norvegicus, UniProt P16067); assay: Effect of natriuretic peptide pre-treatment on CNP-stimulated (GC-B) cGMP accumulation in GH3 cells; assay type: cell-based; settings: 100 nM ANP pre-treatment 6 h, then 100 nM CNP plus 1 mM IBMX 15 min; ns, P > 0.05; Fig. 3c
T1 construct: rapid homologous desensitization of endogenous GC-B receptors in GH3 cells; endogenous in cells; host or cells: GH3 rat somatolactotrope cells
T1 sequence (P16067 17-1047): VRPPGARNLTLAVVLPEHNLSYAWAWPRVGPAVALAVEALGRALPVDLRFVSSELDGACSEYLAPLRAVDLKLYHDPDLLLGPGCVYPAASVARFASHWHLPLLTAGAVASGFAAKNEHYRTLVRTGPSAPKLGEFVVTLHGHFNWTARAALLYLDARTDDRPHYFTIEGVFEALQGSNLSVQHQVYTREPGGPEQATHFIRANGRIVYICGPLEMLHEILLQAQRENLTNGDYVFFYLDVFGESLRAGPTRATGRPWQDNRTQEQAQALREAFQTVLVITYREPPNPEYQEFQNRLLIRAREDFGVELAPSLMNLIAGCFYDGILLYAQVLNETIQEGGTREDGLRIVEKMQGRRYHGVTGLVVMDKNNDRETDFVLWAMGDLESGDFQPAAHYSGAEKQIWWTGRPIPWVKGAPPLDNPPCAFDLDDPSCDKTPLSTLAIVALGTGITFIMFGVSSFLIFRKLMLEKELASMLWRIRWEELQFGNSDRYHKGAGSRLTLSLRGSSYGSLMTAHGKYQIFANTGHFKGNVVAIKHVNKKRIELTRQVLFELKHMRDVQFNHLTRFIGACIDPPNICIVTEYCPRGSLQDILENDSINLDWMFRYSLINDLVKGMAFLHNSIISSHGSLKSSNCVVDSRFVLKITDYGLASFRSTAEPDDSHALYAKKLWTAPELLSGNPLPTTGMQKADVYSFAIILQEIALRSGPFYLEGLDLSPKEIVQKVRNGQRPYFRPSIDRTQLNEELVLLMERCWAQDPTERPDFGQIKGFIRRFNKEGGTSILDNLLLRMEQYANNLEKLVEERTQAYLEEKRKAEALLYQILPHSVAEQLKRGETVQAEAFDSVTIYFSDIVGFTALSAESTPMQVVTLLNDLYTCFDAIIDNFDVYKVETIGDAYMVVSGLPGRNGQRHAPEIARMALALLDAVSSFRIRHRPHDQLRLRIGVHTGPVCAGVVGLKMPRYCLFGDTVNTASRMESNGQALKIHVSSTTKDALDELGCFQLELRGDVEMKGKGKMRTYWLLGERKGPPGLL
Procedure: Having established that GC-B signaling but not that of GC-A receptors, underwent rapid homologous desensitization, we next examined the effect of prolonged exposure of each receptor to its specific ligand. GH3 cells pre-treated with either ANP or CNP for 0 (control) to 6 h reduced the response to a subsequent 15-min treatment of ANP or CNP (with IBMX). […] The amount of cGMP measured from the 15-min pre-treatment sample was reduced by 39.6 ± 0.002 % (***P < 0.001). This effect was maintained up to the 6-h pre-treatment with CNP, which was reduced by 37.9 ± 7.1 % compared with the control (***P < 0.001).
Fig. 3 Effect of chronic exposure to CNP and ANP on GC-B- and GC-A-dependent cGMP accumulation in GH3 cells. Cells were initially treated with (a) 100 nM CNP or (b) 100 nM ANP in PSS without IBMX for 0 to 6 h. The medium was removed and replaced with 100 nM CNP (a) or 100 nM ANP (b) for 15 min in the presence of 1 mM IBMX. […]
In similar experiments designed to examine the effect of ANP pre-exposure to GC-A activity, a significant reduction in cGMP accumulation was observed within 30 min of ANP pre-treatment (by 28.9 ± 3.1 % compared with the control, *P < 0.05). […] In order to test the receptor specificity of the observed down-regulation of GC-B upon pre-treatment with CNP and of GC-A upon pre-treatment with ANP, the effects of ANP on GC-B and CNP on GC-A desensitization were determined. […]

[2] = test system: GC-B; settings: ref Suga et al. [1992]; cited from earlier work
From the text: (§1) As activation of either GC-B or GC-A signaling leads to an increase in cGMP concentrations, we examined whether stimulation of each receptor would lead to the desensitization of the other receptor.

[3] = test system: αT3-1 cells; settings: ref Fowkes et al. [2000]; cited from earlier work
From the text: as §1

[4] = test system: GC-A and GC-B receptors; settings: prolonged exposure; ref Fan et al. [2005]; Dickey et al. [2011]; cited from earlier work
From the text: Pharmacological regulation of the GC-B receptor has been elegantly described through many studies by Potter and Hunter ([1998a], [1999]) who have shown that dephosphorylation of specific serine and threonine residues of the GC-B receptor leads to rapid homologous desensitization. In keeping with the extensive literature describing the regulation of GC-A receptors (Potter et al. [2006]), enhancement of protein kinase C (PKC) activity leads to heterologous desensitization (Potter and Hunter [2000]).

SMILES: CC[C@H](C)[C@@H]1NC(=O)[C@H](CCCNC(=N)N)NC(=O)[C@H](CC(=O)O)NC(=O)[C@H]([C@@H](C)CC)NC(=O)[C@H](CCCNC(=N)N)NC(=O)CNC(=O)CNC(=O)[C@H](Cc2ccccc2)NC(=O)[C@@H](NC(=O)[C@H](CO)NC(=O)[C@H](CO)NC(=O)[C@H](CCCNC(=N)N)NC(=O)[C@H](CCCNC(=N)N)NC(=O)[C@H](CC(C)C)NC(=O)[C@@H](N)CO)CSSC[C@@H](C(=O)N[C@@H](CC(N)=O)C(=O)N[C@@H](CO)C(=O)N[C@@H](Cc2ccccc2)C(=O)N[C@@H](CCCNC(=N)N)C(=O)N[C@@H](Cc2ccc(O)cc2)C(=O)O)NC(=O)CNC(=O)[C@H](CC(C)C)NC(=O)CNC(=O)[C@H](CO)NC(=O)[C@H](CCC(N)=O)NC(=O)[C@H](C)NC(=O)CNC1=O [ANP, atrial natriuretic peptide]
- CNP-stimulated cGMP after ANP pre-treatment vs control [1]: not significantly different from the control samples
- activation of the reciprocal receptor [2]: can activate the reciprocal receptor, albeit only at pharmacological concentrations
- desensitization of the other receptor [3]: fail to desensitize the other receptor
- agonist-induced internalization [4]: does not appear to cause agonist-induced internalization
